According to ChEMBL document CHEMBL1275342 (J Med Chem, 2010):

Experiments:
[1] = molecular target: T1, Serine/threonine-protein kinase Nek2 (Homo sapiens, UniProt P51955)
T1 sequence (P51955 whole entry): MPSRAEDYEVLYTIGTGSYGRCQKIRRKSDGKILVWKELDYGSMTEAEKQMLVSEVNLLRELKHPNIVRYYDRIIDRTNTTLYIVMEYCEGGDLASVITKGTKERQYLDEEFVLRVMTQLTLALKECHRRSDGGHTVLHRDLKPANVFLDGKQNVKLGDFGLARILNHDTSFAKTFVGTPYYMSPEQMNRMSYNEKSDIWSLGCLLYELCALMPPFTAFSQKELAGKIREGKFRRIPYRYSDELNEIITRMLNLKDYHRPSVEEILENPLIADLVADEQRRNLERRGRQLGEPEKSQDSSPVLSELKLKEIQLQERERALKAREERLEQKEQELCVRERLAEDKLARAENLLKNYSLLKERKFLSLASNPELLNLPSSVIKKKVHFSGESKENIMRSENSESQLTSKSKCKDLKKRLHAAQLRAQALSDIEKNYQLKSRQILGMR

[2] = molecular target: T1, Serine/threonine-protein kinase Nek2; remark: listed apart in the source
[3] = molecular target: T1, Serine/threonine-protein kinase Nek2; remark: listed apart in the source

SMILES | IC50 [1] [nM] | IC50 [2] [nM] | IC50 [3] [nM]
COc1cc(-c2cnc(N)c(-c3ccc(C(=O)O)c(C)c3)n2)cc(OC)c1OC | 2600 | 2300 | 1200
COc1cc(-c2nc(-c3cc(OC)c(OC)c(OC)c3)cnc2N)ccc1C(=O)O | 2400 | 2500 | 1300
COc1cc(-c2cnc(N)c(N3CCC(C(=O)O)CC3)n2)cc(OC)c1OC | 870 | 940 | 410
CCOc1cc(-c2nc(-c3cc(OC)c(OC)c(OC)c3)cnc2N)ccc1C(=O)O | 16900 | – | –
COc1cc(-c2cnc(N)c(-c3ccc(C(=O)O)cc3)n2)cc(OC)c1OC | 2300 | – | –
COc1cccc(-c2cnc(N)c(N3CCC(C(=O)O)CC3)n2)c1 | 4200 | – | –
CC[C@H]1CN(c2nc(-c3cc(OC)c(OC)c(OC)c3)cnc2N)CC[C@H]1C(=O)O (racemic) | 1500 | – | –
